Measured values as given in the OPERA property sets (Mansouri et al. 2018).

Conditions: experimental values compiled from the literature

With Cc1c([N+](=O)[O-])cc([N+](=O)[O-])c(O)c1[N+](=O)[O-] the melting point was 110 °C.
With CP(=O)(O)O the melting point was 108 °C.
O=[N+]([O-])c1cc([N+](=O)[O-])c2c([N+](=O)[O-])cc([N+](=O)[O-])cc2c1 gave a melting point of 207 °C.
Nc1c([N+](=O)[O-])cc([N+](=O)[O-])cc1[N+](=O)[O-] gave a melting point of 194 °C.
In the case of COC(=O)N(C)C(=O)CSP(C)(=S)OC (stereo unspecified), the melting point is reported as 36 °C.
In the case of C[As](=O)(O)O, the log10 Koc (L/kg) is reported as 3.85.
Cc1cc([N+](=O)[O-])c([N+](=O)[O-])cc1[N+](=O)[O-] gave a boiling point of 300 °C and a melting point of 104 °C.
CCCCOC(=O)Cl showed a log10 vapour pressure (mmHg) of 0.816.
For CCOP(=S)(CC)Sc1ccccc1 (stereo unspecified), the log10 Koc (L/kg) was 2.94 and the log10 vapour pressure (mmHg) was -3.47.
